# Source: US20040259909A1, “Treatment of fibromyalgia syndrome” (priority 2001, published 2004)
# Sequences of proteins named here, by UniProt entry; tags and fusion partners are left off. Residues count along the entry.
# UniProt P35563, 24-483 limits assumed: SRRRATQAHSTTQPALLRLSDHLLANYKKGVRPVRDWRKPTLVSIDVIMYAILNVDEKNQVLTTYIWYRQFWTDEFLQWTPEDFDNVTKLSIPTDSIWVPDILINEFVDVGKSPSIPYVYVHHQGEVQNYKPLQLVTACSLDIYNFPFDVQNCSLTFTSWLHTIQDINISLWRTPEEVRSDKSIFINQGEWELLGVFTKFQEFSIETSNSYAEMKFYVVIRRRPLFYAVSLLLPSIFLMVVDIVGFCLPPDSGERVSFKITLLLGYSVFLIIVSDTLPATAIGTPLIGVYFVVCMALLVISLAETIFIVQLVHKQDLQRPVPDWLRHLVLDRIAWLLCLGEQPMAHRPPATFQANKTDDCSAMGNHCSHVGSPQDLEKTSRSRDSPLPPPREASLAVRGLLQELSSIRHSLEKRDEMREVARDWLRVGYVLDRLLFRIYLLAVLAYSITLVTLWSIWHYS
# Target: 5-HT3 (Rattus norvegicus, UniProt P35563)
# Experiment: [3H]zacopride binding to rat small-bowel muscularis membranes (Test B)
# Conditions: read-out: KD of radioligand (saturation curve, one site model), tested as the radiolabelled form
smiles,measurement,value
COc1cc(N)c(Cl)cc1C(=O)NC1CN2CCC1CC2 (stereo not shown),Kd,0.7 nM
